Data on one molecule can be found in publication PMC10853778 (Nucleic Acids Research, 2022).

In this test the target is T1, full-length human RPA trimeric complex (RPA70, RPA32, RPA14), recombinant (human, UniProt P27694 1-616; P15927 1-270; P35244 1-121).
T1 construct: RPA70 (RPA1) subunit, human; RPA32 (RPA2) subunit, human; RPA14 (RPA3) subunit, human; also called trimeric RPA; source: E. coli BL21(DE3), p11d-tRPA plasmid, purified (Affi-gel blue, hydroxyapatite, Q column); copies: + +
As to the kind of experiment: NMR titration; 15N-labelled HHD1+2 titrated with unlabelled RPA trimer; 1H-15N 2D TROSY-HSQC, 25°C; RPA dialysed in 20 mM Tris-HCl pH 7.4, 100 mM NaCl, 2 mM DTT. Particulars: both partners purified.

B1: RTEL1 tandem harmonin homology domains HHD1+2 (residues 886-1140) (domain or fragment, human, UniProt Q9NZ71-6 886-1140, looked up)
chain: EPVAGAQTDRAKLFMVAVKQELSQANFATFTQALQDYKGSDDFAALAACLGPLFAEDPKKHNLLQGFYQFVRPHHKQQFEEVCIQLTGRGCGYRPEHSIPRRQRAQPVLDPTGRTAPDPKLTVSTAAAQQLDPQEHLNQGRPHLSPRPPPTGDPGSQPQWGSGVPRAGKQGQHAVSAYLADARRALGSAGCSQLLAALTAYKQDDDLDKVLAVLAALTTAKPEDFPLLHRFSMFVRPHHKQRFSQTCTDLTGRPY
notes: RTEL1, human, residues 886-1140 (HHD1, linker, HHD2) of Uniprot Q9NZ71-6; pET-28a(+), NdeI/XhoI; uniformly 15N-labelled where it was the observed partner; also called HHD1-linker-HHD2; source: E. coli Rosetta (DE3), purified (Ni-NTA, heparin, SEC); not shown: His6, N-terminal, kept
Regarding B1, the binding result is listed as “binds”.
